In PubChem BioAssay AID493206 (National Center for Advancing Translational Sciences (NCATS), 2011):
Only a part is listed here, and it is no random draw. Inconclusive results are not listed. The source made the active and inactive calls. The call rests on the fitted dose curve; in most records, active means well fitted inhibition curve with a large enough effect; inconclusive means small, poorly fitted or top-dose-only effect; inactive means flat fitted curve, though single readings scatter.

target: Dual specificity tyrosine-phosphorylation-regulated kinase 1A (Homo sapiens) (UniProt Q13627); assay: Assay for Inhibitors of Dual-Specificity Tyrosine-(Y)-Phosphorylation Regulated Kinase 1A (Kinase-Glo assay): round 2 SAR; settings: recombinant DYRK1A, Kinase-Glo ATP depletion luminescence
Description: NIH Molecular Libraries Probe Production Centers Network [MLPCN] NIH Chemical Genomics Center [NCGC] MLPCN Grant: 1R03MH084827-01 PI Name: Tom Misteli NCGC Assay Overview: The CMGC group of protein kinases which includes CDK-like kinases (Clk) and Dyks are essential kinases found in all eukaryotes. Clks have been implicated to play a role in the regulation of alternative splicing; while Dyrks, in particular over expression of Dyrk1A, has been linked to diseases as Down syndrome (DS; OMIM 190685) and Alzheimer disease (AD; OMIM 104300). Among the members of the CMGC group, the Clks and the Dyrks are very closely related therefore to determine validity and selectivity of an active compound observed in the CLK4 qHTS screen (AID:1770), a bioluminescent counter-screen against Dyrk1A was developed. […]
NCGC Assay Protocol Summary: Two uL/well of substrate solution (8uM Dyrktide, 2uM ATP, 25mM Tris-HCl pH 7.5, 10mM MgCl2 , 0.5mM EGTA, 5mM cystein, 0.01% Triton X-100 final concentration) was dispensed into 1536-well assay plates (Greiner, solid white, medium-binding plates) with Aurora Discovery BioRAPTR Flying Reagent Dispenser (FRD, Beckton-Dickenson). […] The plates were spun for 30 seconds (1000 rpm) and incubated at ambient temperature for 2 minutes followed by a luminescence read using Perkin Elmer ViewLux plate reader at 3 seconds exposure time and 2x binning.

| SMILES | Potency |
| --- | --- |
| CCN1/C(=C/C(C)=O)Sc2ccc(OC)cc21 | active: 368 nM |
